Results reported in US4766151A, “Ethers and oxime ethers of alkylamino alcohols as medicaments and novel products, and processes for their preparation” (Laboratoires, P.O.S., priority 1982, dated 1988).

Protein sequences, listed by entry. Tags and fused reporters are not part of them.
UniProt Q8K4Z4, whole entry: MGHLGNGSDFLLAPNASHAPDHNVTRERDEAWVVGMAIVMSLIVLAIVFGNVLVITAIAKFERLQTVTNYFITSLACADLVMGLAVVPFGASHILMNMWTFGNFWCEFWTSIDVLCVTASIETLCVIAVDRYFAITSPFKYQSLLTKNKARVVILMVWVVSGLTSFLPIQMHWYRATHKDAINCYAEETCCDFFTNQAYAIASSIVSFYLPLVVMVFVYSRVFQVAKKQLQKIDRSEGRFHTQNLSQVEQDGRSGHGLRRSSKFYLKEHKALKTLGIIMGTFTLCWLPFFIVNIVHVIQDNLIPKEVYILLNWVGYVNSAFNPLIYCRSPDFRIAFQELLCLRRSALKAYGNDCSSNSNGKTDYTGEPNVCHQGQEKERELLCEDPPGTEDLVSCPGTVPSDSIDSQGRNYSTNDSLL

Target: T1, isolated trachea of a guinea pig (Cavia porcellus, UniProt Q8K4Z4)
T1 construct: isolated trachea of a guinea pig; from tissue; host or cells: guinea pig isolated trachea
Test: pA2 measurement of beta-blocking activity on the isolated trachea of a guinea pig
Type: cell-based
Method: The PA2 is the co-logarithm of the concentration of antagonist in the presence of which it requires twice as much agonist as in its absence in order to achieve the same effect; see, on this subject: Calculation of the PAx, Technical Leaflet No. 16, J. Pharmacol. Paris 1971, 2, 3, 373-380. The PA2 was measured on the isolated auricle of a guinea pig and on the isolated trachea of a guinea pig. The product used by way of comparison is the following compound: [drawing 23]

## CC(C)(C)NCC(O)CON=C(C1CC1)C1CC1 (stereo not shown) [Compound No. 2, 1-N-tert.-Butylamino-3-(dicyclopropyl-ketoneoximino)-propan-2-ol]
  Trachea pA2: 8.67
